Measured values reported in patent US20200131144A1, “AMINE OR (THIO)AMIDE CONTAINING LXR MODULATORS” (Phenex-FXR GmbH, priority 2017, published 2020).

Sequences of proteins named here, by UniProt entry; tags and fusion partners are left off. A line that says so, or that is headed by a name, gives the form on record, which may keep a tag or linker. Residues count along the entry.
UniProt P55055, 156-460 with tags or gaps INS174Q limits assumed: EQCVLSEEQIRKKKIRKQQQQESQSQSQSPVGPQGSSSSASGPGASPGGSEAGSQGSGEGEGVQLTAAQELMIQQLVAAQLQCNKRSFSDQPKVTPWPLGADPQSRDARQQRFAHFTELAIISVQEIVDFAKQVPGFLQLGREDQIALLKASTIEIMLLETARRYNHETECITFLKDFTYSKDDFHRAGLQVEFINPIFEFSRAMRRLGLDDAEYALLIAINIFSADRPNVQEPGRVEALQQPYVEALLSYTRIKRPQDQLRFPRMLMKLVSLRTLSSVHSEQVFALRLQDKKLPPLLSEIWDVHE
UniProt P55055, with tags, fused parts or gaps INS174Q: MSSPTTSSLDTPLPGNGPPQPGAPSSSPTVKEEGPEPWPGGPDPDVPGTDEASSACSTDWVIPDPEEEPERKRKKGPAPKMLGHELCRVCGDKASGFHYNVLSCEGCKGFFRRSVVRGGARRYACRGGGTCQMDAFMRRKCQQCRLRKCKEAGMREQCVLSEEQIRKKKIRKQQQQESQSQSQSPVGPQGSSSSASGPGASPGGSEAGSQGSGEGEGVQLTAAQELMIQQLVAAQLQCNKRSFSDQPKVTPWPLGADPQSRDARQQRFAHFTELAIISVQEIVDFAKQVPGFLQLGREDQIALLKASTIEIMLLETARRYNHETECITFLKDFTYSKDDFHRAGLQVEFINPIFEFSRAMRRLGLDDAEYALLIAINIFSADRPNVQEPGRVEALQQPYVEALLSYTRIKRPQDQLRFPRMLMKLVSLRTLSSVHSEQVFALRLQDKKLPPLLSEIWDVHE
UniProt Q13133, whole entry: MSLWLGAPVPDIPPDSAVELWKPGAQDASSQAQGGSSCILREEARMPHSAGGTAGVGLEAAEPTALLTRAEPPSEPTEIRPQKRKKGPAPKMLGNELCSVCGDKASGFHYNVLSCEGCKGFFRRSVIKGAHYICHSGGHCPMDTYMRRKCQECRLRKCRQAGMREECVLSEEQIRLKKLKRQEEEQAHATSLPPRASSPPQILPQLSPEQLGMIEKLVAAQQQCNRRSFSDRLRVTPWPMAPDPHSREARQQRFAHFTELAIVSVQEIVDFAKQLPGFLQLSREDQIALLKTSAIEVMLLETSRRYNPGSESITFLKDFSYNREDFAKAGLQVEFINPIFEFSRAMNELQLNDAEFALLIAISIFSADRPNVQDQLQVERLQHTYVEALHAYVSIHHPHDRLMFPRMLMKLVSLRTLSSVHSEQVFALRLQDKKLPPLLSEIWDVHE
UniProt Q13133, 155-447 limits assumed: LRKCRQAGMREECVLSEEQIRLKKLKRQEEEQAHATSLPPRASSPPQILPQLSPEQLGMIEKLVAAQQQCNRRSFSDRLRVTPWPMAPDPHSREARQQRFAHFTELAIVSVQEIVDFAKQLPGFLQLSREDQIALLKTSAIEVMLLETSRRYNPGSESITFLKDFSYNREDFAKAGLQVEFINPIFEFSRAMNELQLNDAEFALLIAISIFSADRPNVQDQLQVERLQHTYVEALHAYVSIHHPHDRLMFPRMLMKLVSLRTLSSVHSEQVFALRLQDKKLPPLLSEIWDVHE

Experiments:
[1] = target: GST-LXRβ ligand-binding domain (Homo sapiens, UniProt P55055, INS174Q); assay: TR-FRETβ activity assay (NCoA3 coactivator peptide recruitment); conditions: read-out: FRETβ; 1 μM 24(S)-25-epoxycholesterol as prestimulating agonist; inverse agonist unless *
Description: (§1) The tested compounds were usually dissolved, tested and stored as 20 mM stock solutions in DMSO. Since sulfonyl acetic acid derivatives tend to decarboxylate under these conditions, these stock solutions were prepared, tested and stored as 20 mM DMSO stock solutions containing 100 mM trifluoroacetic acid (5 equivalents). Sulfonyl acetic acid derivatives are shelf stable as solid at rt for long time as reported by Griesbrecht et al. (Synlett 2010:374) or Faucher et al. (J. Med. Chem. 2004; 47:18).
Recombinant GST-LXRβ ligand-binding domain (LBD; amino acids 156-461; NP009052; SEQ ID NO:4) was expressed in E. coli and purified via gluthatione-sepharose affinity chromatography. N-terminally biotinylated NCoA3 coactivator peptide (SEQ ID NO:7) was chemically synthesized (Eurogentec). Assays were done in 384 well format (final assay volume of 25 μL/well) in a Tris/HCl buffer (pH 6.8) containing KCl, bovine serum albumin, Triton-X-100 and 1 μM 24(S)-25-epoxycholesterol as LXR-prestimulating agonist. Assay buffer was provided and test articles (potential LXR inverse agonists) were titrated to yield final assay concentrations of 50 μM, 16.7 μM, 5.6 μM, 1.9 μM, 0.6 μM, 0.2 μM, 0.07 μM, 0.02 μM, 0.007 μM, 0.002 μM with one vehicle control. Finally, a detection mix was added containing anti GST-Tb cryptate (CisBio; 610SAXLB) and Streptavidin-XL665 (CisBio; 610SAXLB) as fluorescent donor and acceptor, respectively, as well as the coactivator peptide and LXRβ-LBD protein (SEQ ID NO:4). The reaction was mixed thoroughly, equilibrated for 1 h at 4° C. and vicinity of LXRβ and coactivator peptide was detected by measurement of fluorescence in a VictorX4 multiplate reader (PerkinElmer Life Science) using 340 nm as excitation and 615 and 665 nm as emission wavelengths. Assays were performed in triplicates.
Final Assay Concentrations of Components:
240 mM KCl, 1 μg/μL BSA, 0.002% Triton-X-100, 125 pg/μL anti GST-Tb cryptate, 2.5 ng/μL Streptavidin-XL665, coactivator peptide (400 nM), LXRP protein ([…], i.e. 76 nM).

[2] = target: LXRβ full length (FL) (Homo sapiens, UniProt P55055, INS174Q); assay: LXR Gal4 reporter transient transfection assay, mammalian two-hybrid, FL-M2H Gal4β; conditions: read-out: FL-M2H Gal4β; HEK293 cells; inverse agonist unless *
Description: as §1
(§2) LXR Gal4 Reporter Transient Transfection Assays
(§3) LXRα and LXRβ activity status was determined via detection of interaction with coactivator and corepressor proteins in mammalian two-hybrid experiments (M2H). […] As cofactors, domains of either the steroid receptor coactivator 1 (SRC1; amino acids 552-887; SEQ ID NO:5) or of the corepressor NCoR (amino acids 1906-2312; NP006302; SEQ ID NO:6) were expressed as fusions to the DNA binding domain of the yeast transcription factor GAL4 (from pCMV-BD; Stratagene). Interaction was monitored via activation of a coexpressed Firefly Luciferase Reporter gene under control of a promoter containing repetitive GAL4 response elements (vector pFRLuc; Stratagene). […] Measurements of luminescence were done in a BMG-luminometer.

[3] = target: LXRα full length (FL) (Homo sapiens, UniProt Q13133); assay: LXR Gal4 reporter transient transfection assay, mammalian two-hybrid, FL-M2H Gal4α; conditions: read-out: FL-M2H Gal4α; HEK293 cells; inverse agonist unless *
Description: as §1, §2, §3

[4] = target: LXRα ligand-binding domain (LBD) (Homo sapiens, UniProt Q13133); assay: LXR Gal4 reporter transient transfection assay, mammalian two-hybrid, LBD-M2H Gal4α; conditions: read-out: LBD-M2H Gal4α; HEK293 cells; inverse agonist unless *
Description: as §1, §2, §3

[5] = target: LXRβ ligand-binding domain (LBD) (Homo sapiens, UniProt P55055, INS174Q); assay: LXR Gal4 reporter transient transfection assay, mammalian two-hybrid, LBD-M2H Gal4β; conditions: read-out: LBD-M2H Gal4β; HEK293 cells; inverse agonist unless *
Description: as §1, §2, §3

Row | SMILES | EC50 [1] | EC50 [2] | EC50 [3] | EC50 [4] | EC50 [5]
1 | Cc1nc2ccccc2c(C(=O)N(Cc2ccc(C(=O)OC(C)(C)C)o2)Cc2ncc(-c3cccc(C(C)C(=O)O)c3)cc2Cl)c1C (stereo not drawn) | > 10000 nM | 100 to 1000 nM | 1000 to 10000 nM | – | –
2 | Cc1ccc2ccccc2c1CN(Cc1ccc(-c2cccc(C3CC3C(=O)O)c2)cc1)Cc1ccc(C(F)(F)F)o1 (stereo not drawn) | 100 to 1000 nM | – | – | < 100 nM | < 100 nM
3 | Cc1nc2ccccc2c(C(=O)N(Cc2ccc(-c3cccc(C(C)C(=O)O)c3)cc2)Cc2ccc(C(F)(F)F)o2)c1C (stereo not drawn) | 100 to 1000 nM | < 100 nM | < 100 nM | – | –
